Consider 1 compound from ChEMBL document CHEMBL1140203, “cis-4-(Piperazin-1-yl)-5,6,7a,8,9,10,11,11a-octahydrobenzofuro[2,3-h]quinazolin-2-amine (A-987306), a new histamine H4R antagonist that blocks pain responses against carrageenan-induced hyperalgesia” (J Med Chem, 2008).

By UniProt entry, the sequences of proteins in these tests, tags left out. Where a name states a change or a piece, a line headed by the entry shows the natural chain unless it says otherwise.
UniProt Q9QYN8: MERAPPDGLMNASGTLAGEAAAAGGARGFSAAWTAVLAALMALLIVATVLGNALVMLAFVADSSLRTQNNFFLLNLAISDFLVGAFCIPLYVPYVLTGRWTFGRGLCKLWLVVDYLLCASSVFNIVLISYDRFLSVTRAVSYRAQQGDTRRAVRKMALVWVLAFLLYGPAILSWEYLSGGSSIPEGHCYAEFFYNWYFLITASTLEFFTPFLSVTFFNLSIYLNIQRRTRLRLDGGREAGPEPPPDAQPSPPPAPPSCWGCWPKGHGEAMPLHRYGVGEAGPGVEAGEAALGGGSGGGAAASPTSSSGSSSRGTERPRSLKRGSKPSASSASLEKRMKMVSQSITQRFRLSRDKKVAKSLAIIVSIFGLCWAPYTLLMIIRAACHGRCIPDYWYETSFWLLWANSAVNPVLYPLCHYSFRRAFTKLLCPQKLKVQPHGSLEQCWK

The target in this assay is Histamine H3 receptor (Rattus norvegicus, UniProt Q9QYN8).

A word on the Ki: it is a dissociation constant, usually derived from enzyme kinetics or from competition with a known ligand. A lower Ki goes with tighter binding. As for `CN1CCN(C(=O)c2cc3cc(Cl)ccc3[nH]2)CC1` [JNJ-7777120], the affinity, expressed as Ki, was 1450 nM.
